Data published in article PMC6248884 (European journal of medicinal chemistry, 2018).

Key:
Assay type in all cases: cell-based
[1] = test system: NCI-H460 cells; experiment: Cytotoxicity assay to NCI-H460 human lung carcinoma cells; conditions: NCI-H460, read-out: NCI-H460 IC50
[2] = test system: SKBR3 cells (Her2+); experiment: Cell proliferation assay; conditions: read-out: SKBR3 IC50, Table 5
[3] = test system: MDA-MB-231 cells (Her2-); experiment: Cell proliferation assay; conditions: read-out: MDA-MB-231 IC50, Table 5

Compound	IC50 [2]	also measured
CCCCCC(=O)N[C@H](C(=O)N[C@@H](CCS(=O)(=O)c1ccc(NC(=O)OC(C)(C)C)cc1)C(=O)N[C@@H](CC(C)C)C(=O)[C@@]1(C)CO1)C(C)C [Analogue 13-Boc, tert-Butyl (4-(((S)-3-((S)-2-hexanamido-3-methylbutanamido)-4-(((S)-4-methyl-1-((R)-2methyloxiran-2-yl)-1-oxopentan-2-yl)amino)-4-oxobutyl)sulfonyl)phenyl)carbamate]	–	IC50 [1]: 6.6 ± 0.3 nM
Trastuzumab-HCF404-MMAE [reference compound]	0.046 nM	–
Trastuzumab-LCS7-23	0.53 nM	–
Trastuzumab-HCF404-23	–	IC50 [3]: 10 nM
Trastuzumab-LCS7-MMAE [reference compound]	0.003 nM	–
Trastuzumab-LCS7-22	0.21 nM	–
